Experimental data published in patent US5854388A, “Angiotensin IV peptides and receptor” (Washington State University Research Foundation, priority 1994, dated 1998).
Where two headings read alike, the source gives them in different places.

Experiments:
AT4 receptor [1] = molecular target: T1, AT4 receptor (Bos taurus, UniProt F1N1Q8); experiment: 125I-AIV binding and competition, solubilized bovine adrenal cortical receptor
AT4 receptor [2] = molecular target: T1, AT4 receptor; experiment: 125I-AIV binding and competition, bovine adrenal cortical membranes
rat kidney = experiment: Renal cortical blood flow (laser doppler) and arterial pressure after infusion into the renal artery; type: in vivo

## D-Val1 YIHPF
AT4 receptor [1]
  binding to solubilized AT4 receptor (in words): inactive

## KYIHPF
AT4 receptor [2]
  binding affinity for the AT4 receptor (in words): higher binding affinity than AIV
AT4 receptor [2]; listed as Lys1 YIHPF
  binding affinity for the AT4 receptor (in words): higher than NVal1 YIHPF
Rat kidney; 100 pmole/25 ml/min
  increased blood flow as % of the maximum attainable with bradykinin: 38%
Rat kidney; rat, in vivo
  effect on arterial blood pressure (in words): no significant changes in arterial blood pressure

## NleYIHPF
AT4 receptor [2]
  Ki: 1 pM
  binding affinity for the AT4 receptor (in words): higher binding affinity than AIV
  binding affinity higher than Lys-substituted AIV: 60 fold
AT4 receptor [2]; listed as Nle1 YIHPF
  Ki: < 1 pM
  binding affinity for the AT4 receptor (in words): higher binding affinity for an illustrative AT4 receptor than Lys1 YIHPF
